Assays:
[1] = molecular target: Kappa-type opioid receptor (Homo sapiens, UniProt P41145); assay: Percent stimulation of [35S]GTP-gamma-S, binding in recombinant human Opioid receptor kappa 1 transfected into CHO cells; format: functional, cell-based
[2] = molecular target: Mu-type opioid receptor (Homo sapiens, UniProt P35372); assay: Percent stimulation of [35S]GTP-gamma-S, binding in recombinant human Opioid receptor mu 1 transfected into CHO cells; format: functional, cell-based
[3] = molecular target: Delta-type opioid receptor (Homo sapiens, UniProt P41143); assay: Percent stimulation of [35S]GTP-gamma-S, binding to recombinant human Opioid receptor delta 1 expressed in CHO cells; format: functional, cell-based
[4] = molecular target: Opioid receptors; delta & kappa (Homo sapiens) (UniProt P41145+P41143); assay: Selectivity between kappa opioid receptor and delta opioid receptor.; format: functional
[5] = molecular target: Opioid receptors; mu & delta (Homo sapiens) (UniProt P41143+P35372); assay: Selectivity between mu opioid receptor and delta opioid receptor.; format: functional

The chains behind the UniProt entries cited, without tags or fusion partners. Where a name states a change or a piece, a line headed by the entry shows the natural chain unless it says otherwise.
UniProt P41145: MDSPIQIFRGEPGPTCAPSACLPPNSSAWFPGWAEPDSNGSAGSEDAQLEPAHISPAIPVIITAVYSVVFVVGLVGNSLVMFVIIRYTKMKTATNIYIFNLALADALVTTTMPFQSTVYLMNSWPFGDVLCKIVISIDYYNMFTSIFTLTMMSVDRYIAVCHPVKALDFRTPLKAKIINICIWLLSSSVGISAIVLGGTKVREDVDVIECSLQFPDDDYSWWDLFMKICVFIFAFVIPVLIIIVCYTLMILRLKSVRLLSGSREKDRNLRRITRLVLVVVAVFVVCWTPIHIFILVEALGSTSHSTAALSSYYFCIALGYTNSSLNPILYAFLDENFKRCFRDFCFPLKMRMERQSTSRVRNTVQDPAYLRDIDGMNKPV
UniProt P35372, whole entry, looked up: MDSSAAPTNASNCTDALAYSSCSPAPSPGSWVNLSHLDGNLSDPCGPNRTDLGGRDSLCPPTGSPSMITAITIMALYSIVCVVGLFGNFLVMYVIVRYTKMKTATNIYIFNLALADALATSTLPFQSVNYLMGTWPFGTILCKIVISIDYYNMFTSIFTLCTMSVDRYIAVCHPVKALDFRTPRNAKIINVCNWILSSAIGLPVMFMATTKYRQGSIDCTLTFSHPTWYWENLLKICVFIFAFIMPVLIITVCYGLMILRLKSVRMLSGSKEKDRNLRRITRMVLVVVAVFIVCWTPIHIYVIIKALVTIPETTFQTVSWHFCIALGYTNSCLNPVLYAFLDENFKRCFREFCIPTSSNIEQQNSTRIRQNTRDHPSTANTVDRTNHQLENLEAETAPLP
UniProt P41143, whole entry, looked up: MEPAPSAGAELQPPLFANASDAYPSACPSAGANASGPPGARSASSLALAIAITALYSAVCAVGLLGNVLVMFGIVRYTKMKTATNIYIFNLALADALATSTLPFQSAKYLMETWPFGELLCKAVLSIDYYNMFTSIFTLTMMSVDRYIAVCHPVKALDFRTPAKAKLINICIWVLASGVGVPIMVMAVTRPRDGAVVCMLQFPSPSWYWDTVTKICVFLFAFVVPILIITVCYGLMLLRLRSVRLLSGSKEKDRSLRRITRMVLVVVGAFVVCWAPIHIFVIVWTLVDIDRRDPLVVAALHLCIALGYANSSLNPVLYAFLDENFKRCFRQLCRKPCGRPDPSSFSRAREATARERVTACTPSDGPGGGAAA

For `CN(C(=O)Cc1ccccc1)[C@H]1CC[C@@]2(CCCO2)C[C@@H]1N1CCCC1`, the Stimulation [1] was 100%, the Stimulation [2] was > 10000% and the Stimulation [3] was > 10000%. For the same compound, the Selectivity [4] was < 3 and the Selectivity [5] was < 0.11.

— ChEMBL document CHEMBL1144921, “14-amino, 14-alkylamino, and 14-acylamino analogs of oxymorphindole. Differential effects on opioid receptor binding and functional profiles” (J Med Chem, 2003)
